Data published in ChEMBL document CHEMBL5375999, “Discovery of a Dual Tubulin and Neuropilin-1 (NRP1) Inhibitor with Potent In Vivo Anti-Tumor Activity via Pharmacophore-based Docking Screening, Structure Optimization, and Biological Evaluation” (J Med Chem, 2023).

By UniProt entry, the sequences of proteins in these tests, tags left out. Where a name states a change or a piece, a line headed by the entry shows the natural chain unless it says otherwise.
UniProt P68371: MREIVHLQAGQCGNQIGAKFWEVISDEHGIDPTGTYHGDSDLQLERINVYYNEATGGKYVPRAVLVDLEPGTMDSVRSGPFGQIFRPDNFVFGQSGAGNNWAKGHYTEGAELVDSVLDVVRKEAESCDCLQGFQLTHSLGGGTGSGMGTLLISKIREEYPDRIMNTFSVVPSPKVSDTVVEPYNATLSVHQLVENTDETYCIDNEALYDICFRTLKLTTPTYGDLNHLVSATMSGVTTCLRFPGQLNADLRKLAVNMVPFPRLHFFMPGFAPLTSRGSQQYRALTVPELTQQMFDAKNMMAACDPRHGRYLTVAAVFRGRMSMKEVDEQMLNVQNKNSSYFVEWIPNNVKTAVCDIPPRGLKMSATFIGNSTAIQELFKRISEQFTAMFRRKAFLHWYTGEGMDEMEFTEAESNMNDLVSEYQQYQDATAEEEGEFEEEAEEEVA
UniProt Q9H4B7: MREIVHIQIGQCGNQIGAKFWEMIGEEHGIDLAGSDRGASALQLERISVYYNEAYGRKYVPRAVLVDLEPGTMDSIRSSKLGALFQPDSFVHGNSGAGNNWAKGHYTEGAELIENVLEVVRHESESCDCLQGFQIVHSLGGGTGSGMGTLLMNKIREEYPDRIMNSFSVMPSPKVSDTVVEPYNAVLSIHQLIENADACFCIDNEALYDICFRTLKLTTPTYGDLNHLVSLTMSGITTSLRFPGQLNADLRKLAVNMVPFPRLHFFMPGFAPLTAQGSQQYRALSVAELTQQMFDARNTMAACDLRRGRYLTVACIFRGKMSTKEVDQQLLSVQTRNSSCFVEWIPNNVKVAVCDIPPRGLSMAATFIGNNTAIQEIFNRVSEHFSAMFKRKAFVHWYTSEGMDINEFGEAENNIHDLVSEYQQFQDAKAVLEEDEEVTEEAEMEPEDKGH
UniProt P0DPH7: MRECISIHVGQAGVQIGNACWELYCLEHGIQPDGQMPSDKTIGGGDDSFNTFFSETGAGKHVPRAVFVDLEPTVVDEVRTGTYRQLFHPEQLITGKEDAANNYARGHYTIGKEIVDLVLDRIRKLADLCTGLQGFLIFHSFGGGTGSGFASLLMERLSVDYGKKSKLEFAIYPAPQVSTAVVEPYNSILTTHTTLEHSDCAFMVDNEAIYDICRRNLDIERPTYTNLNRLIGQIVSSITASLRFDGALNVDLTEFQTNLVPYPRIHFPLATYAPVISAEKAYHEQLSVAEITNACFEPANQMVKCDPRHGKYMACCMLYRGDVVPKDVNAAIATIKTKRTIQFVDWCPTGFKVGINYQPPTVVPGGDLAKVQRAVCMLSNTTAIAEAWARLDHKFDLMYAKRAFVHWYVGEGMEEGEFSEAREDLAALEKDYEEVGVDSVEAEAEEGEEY
UniProt P68366: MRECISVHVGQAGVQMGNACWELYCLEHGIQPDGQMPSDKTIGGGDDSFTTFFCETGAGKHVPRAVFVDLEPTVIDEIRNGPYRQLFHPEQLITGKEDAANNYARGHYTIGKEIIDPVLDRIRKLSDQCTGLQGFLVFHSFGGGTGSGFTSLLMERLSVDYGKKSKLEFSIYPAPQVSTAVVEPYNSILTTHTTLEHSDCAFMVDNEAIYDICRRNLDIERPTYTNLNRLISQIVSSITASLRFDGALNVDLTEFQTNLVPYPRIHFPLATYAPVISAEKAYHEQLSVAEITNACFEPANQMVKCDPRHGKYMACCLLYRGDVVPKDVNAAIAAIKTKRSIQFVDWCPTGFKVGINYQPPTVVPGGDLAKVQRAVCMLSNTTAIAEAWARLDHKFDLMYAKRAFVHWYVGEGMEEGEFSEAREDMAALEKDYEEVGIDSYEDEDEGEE
UniProt Q13509: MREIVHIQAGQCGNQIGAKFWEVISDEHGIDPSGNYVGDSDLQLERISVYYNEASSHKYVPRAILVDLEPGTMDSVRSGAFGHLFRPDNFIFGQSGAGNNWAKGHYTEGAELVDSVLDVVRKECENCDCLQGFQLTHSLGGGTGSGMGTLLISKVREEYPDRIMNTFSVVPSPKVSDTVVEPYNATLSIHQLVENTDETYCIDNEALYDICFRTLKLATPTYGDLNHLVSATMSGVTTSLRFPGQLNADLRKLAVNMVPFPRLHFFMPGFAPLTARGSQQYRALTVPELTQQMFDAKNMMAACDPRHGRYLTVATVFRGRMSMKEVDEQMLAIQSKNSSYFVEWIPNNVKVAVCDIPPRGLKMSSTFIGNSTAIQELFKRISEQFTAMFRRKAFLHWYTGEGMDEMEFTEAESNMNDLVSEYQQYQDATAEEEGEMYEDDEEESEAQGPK
UniProt Q71U36: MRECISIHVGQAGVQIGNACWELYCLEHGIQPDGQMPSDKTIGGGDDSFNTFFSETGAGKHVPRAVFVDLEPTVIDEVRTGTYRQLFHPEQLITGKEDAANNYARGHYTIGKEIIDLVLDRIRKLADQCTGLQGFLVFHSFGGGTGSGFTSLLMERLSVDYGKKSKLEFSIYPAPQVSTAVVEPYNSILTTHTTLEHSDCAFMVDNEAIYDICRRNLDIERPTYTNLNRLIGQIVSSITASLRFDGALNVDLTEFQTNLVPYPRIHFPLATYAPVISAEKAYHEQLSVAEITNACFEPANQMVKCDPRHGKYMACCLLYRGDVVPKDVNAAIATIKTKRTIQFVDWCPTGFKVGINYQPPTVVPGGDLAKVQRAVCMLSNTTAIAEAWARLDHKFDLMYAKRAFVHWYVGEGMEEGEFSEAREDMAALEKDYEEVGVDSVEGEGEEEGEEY
UniProt P04350: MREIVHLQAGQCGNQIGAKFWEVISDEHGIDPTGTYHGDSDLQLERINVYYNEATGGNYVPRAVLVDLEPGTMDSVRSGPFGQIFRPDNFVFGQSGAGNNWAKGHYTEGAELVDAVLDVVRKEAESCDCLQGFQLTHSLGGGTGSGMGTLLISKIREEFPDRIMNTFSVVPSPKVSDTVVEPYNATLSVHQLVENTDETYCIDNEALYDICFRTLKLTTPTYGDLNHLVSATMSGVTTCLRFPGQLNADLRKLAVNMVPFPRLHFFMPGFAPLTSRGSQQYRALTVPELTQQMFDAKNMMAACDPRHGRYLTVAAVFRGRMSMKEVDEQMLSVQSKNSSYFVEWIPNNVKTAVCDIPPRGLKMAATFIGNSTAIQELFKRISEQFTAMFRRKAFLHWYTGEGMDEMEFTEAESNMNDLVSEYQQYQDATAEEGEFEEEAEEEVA
UniProt Q3ZCM7: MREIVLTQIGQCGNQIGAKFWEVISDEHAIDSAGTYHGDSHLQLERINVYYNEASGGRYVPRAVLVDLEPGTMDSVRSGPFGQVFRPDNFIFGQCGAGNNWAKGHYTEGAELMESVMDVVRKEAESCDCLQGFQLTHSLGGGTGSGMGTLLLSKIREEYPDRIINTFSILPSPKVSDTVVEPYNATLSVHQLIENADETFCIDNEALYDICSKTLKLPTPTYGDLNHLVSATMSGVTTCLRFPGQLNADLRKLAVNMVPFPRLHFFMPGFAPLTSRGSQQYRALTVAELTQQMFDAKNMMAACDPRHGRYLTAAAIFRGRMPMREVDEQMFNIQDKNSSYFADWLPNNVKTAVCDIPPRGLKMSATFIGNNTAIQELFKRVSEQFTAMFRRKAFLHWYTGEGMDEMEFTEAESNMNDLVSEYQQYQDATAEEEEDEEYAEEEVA
UniProt P68363: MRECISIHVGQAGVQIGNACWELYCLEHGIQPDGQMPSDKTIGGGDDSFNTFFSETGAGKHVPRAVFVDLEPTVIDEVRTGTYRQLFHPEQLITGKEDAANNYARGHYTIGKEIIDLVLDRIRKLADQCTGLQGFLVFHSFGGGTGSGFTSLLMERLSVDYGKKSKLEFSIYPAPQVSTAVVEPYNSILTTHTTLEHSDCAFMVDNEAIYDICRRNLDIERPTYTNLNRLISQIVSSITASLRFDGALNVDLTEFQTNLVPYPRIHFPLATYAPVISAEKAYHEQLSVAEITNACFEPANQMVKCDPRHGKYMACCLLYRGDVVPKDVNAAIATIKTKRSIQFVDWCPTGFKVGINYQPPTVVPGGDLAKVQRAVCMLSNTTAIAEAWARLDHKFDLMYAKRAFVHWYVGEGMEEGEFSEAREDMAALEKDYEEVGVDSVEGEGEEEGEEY
UniProt Q9BQE3: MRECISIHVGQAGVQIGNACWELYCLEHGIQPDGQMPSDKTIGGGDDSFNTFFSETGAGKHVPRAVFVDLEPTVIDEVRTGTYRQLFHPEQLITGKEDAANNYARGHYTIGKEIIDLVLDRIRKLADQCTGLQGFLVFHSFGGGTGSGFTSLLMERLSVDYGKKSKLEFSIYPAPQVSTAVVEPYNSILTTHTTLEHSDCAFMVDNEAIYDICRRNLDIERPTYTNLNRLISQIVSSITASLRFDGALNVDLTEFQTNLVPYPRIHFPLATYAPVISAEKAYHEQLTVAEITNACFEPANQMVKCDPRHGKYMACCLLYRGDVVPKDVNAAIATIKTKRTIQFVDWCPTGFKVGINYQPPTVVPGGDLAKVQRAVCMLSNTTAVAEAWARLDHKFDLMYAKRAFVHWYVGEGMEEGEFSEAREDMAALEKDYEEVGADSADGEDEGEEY
UniProt Q6PEY2: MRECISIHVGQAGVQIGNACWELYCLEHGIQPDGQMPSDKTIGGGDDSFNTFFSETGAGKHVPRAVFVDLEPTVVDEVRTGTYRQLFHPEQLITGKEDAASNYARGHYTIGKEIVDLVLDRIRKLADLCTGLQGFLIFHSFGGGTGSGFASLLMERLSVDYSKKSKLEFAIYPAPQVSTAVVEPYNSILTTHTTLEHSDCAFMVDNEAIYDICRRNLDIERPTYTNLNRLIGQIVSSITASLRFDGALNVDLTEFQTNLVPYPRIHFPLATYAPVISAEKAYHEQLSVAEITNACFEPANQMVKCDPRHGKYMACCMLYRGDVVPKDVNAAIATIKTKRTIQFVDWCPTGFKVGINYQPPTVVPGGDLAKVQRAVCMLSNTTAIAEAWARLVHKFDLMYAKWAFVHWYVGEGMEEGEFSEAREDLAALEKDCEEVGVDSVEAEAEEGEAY
UniProt Q13885: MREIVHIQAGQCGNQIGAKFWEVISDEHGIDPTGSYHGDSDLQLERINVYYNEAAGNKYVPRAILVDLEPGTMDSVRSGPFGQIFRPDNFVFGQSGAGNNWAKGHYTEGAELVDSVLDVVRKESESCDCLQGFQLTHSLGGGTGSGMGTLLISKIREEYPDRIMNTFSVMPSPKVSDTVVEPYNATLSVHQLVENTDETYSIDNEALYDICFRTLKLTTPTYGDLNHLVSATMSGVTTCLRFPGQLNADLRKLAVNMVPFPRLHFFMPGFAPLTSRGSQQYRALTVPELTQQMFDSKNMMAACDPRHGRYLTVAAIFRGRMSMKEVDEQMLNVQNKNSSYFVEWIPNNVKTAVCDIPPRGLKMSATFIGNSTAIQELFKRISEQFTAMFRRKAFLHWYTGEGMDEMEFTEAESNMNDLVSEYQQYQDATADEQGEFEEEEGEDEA
UniProt Q9BVA1: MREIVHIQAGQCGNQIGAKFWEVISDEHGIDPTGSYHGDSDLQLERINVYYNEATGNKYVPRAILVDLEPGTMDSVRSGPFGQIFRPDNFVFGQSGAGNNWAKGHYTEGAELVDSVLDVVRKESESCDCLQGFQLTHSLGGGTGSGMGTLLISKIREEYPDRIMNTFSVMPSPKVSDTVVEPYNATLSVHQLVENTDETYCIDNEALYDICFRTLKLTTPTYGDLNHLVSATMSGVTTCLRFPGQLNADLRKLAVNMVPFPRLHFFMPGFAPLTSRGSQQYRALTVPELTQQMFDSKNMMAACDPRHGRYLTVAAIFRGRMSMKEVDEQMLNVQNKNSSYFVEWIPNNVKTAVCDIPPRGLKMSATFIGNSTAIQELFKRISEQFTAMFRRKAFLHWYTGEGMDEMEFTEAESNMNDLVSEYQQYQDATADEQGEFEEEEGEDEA
UniProt Q9BUF5: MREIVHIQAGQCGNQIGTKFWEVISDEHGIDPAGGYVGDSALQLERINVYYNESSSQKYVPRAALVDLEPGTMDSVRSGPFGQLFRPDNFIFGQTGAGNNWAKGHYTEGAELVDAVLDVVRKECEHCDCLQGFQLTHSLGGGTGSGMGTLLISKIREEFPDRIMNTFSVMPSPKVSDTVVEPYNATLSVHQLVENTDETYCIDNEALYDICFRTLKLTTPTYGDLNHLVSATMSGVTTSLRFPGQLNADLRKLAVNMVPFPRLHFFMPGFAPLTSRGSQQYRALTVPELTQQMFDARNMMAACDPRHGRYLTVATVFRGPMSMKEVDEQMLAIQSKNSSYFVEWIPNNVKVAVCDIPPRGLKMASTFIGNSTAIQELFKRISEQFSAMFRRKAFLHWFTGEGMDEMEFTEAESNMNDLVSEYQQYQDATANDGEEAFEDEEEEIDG

Key:
Tubulin (Homo sapiens) = Tubulin (Homo sapiens) (UniProt P68371+Q9H4B7+P0DPH7+P68366+Q13509+Q71U36+P04350+Q3ZCM7+P07437+P68363+Q9BQE3+Q6PEY2+Q13885+Q9BVA1+Q9BUF5); assay: Potency index, ratio of CA-2 IC50 to test compound IC50 for inhibition of tubulin polymerization (unknown origin); type: protein-complex assay
Homo sapiens [1] = organism: Homo sapiens; assay: Potency index, ratio of EG00229 IC50 to test compound IC50 for inhibition of [125I]-VEGF-A165 binding to NPR1 (unknown origin) transfected in HUVECs
Homo sapiens [2] = organism: Homo sapiens; assay: Selectivity index, ratio of IC50 for human PrECs to IC50 for human PC-3 cells

Work on `COc1ccc(/C=C\c2cc(OC)c(OC)c(OC)c2)cc1NC(=O)CCC(=O)N[C@@H](CCCNC(=N)N)C(=O)O` yielded a Ratio IC50 (Tubulin (Homo sapiens)) of 2, a Ratio IC50 (Homo sapiens [1]) of 3 and a Ratio IC50 (Homo sapiens [2]) of over 500.
